Source: US20050129680A1, “Antimicrobial activity of antibodies” (priority 2001, published 2005)

Assay: Antibody/protein UV irradiation with Amplex Red quantitative assay for hydrogen peroxide
Assay type: biochemical
Method: Aliquots (10 μL) were removed at timed intervals throughout the assay. H2O2 concentration was determined by the amplex red method. Each data point is reported as the mean±SEM of at least duplicate measurements: ? polyclonal (poly) immunoglobulin (Ig) G, human; O poly-IgG, horse; ? poly-IgG, sheep; ∇ monoclonal (m) IgG (WD1-6G6), murine; ? poly-IgM, human; ? mIgG (92H2), murine; ¦ β-galactosidase (β-gal); ? chick ovalbumin (OVA); ? a-lactalbumin (a-lact); ? bovine serum albumin (BSA).
Antibody/Protein Irradiation.
Quantitative Assay for Hydrogen Peroxide. An aliquot (20 μl) from the protein solution was removed and added into a well of a 96-well microtiter plate (Costar) containing reaction buffer (80 μl). […] The fluorescence of the well components was then measured using a CytoFluor Multiwell Plate Reader (Series 4000, PerSeptive Biosystems, Framingham, Mass.; Ex/Em: 530/580 nm). The hydrogen peroxide concentration was determined using a standard curve. […]
A suspension of crystals of the Fab fragment of 1D4 (2 μl) was diluted with PBS (198 μl, pH 7.4) and vortexed gently. […] Following UV irradiation for 30 min, Amplex Red working solution (100 μl) was added, and the mixture was viewed on a fluorescence microscope.
Denaturation. […] The concentration of H2O2 was determined after 30 min.

β2-microglobulin: member of the immunoglobulin superfamily
generation of H2O2: does not generate H2O2
